Experimental data reported in patent publication US20260070927A1, “INDAZOLE MACROCYCLES FOR THE TREATMENT OF AUTOIMMUNE DISEASE” (Hoffmann-La Roche Inc., priority 2022, published 2026).

Chains of the proteins cited; added tags and fusions are not shown. Residues count along the entry.
UniProt Q86WV6, 139-379 limits assumed: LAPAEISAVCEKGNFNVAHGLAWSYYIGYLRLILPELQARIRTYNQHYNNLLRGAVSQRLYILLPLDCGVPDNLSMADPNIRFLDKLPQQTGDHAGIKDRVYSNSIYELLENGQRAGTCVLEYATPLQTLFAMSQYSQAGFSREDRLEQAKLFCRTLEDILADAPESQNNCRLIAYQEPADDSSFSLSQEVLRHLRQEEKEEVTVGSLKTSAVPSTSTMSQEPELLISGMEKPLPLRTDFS

Key:
[1] = biological target: human stimulator of interferon genes (STING) (139-379) (Homo sapiens (Human), UniProt Q86WV6); experiment: Microliter plate-based TR-FRET competition-binding assay for binders of STING; conditions: read-out: FRET_IC50, Alexa488 probe
Description: This is the competition-binding assay to test the compounds' potency to the C-terminal Domain (CTD) and ligand-binding domain of human stimulator of interferon genes (STING). STING (139-379, Q86WV6, http://www.uniprot.org/uniprot) recombinant protein (in 20 mM Tris, 150 mM NaCl, pH 8.0, and expression in Escherichia coli (E. coli) BL21 (DE3)) with a C-terminal flag-tag was employed for the assay. When Alexa-488 labeled active site probe (refer to patent WO2017/175156 A1) bounds to STING (139-379), it accepts the 485 nm emission from Tb-M2-Flag-STING and results in an increase in fluorescence at 520 nm. Compounds that compete for the probe-binding site will reduce 520 nm signal. […] Plates were centrifuged for 1 min at 1000 rpm, incubated for 30 min at room temperature, and then measured the dual fluorescence emission at 520 nm/485 nM following 320 nm laser excitation on an Envision plate reader (Perkin-Elmer). The compounds' effect on the STING binding is detected by measuring ratiometric fluorescence from time-resolved FRET. The percentage of inhibition of at each compound concentration is calculated on the basis of their changes of TR-FRET efficiency relative to the change of TR-FRET caused by positive control 2′3′cGAMP (Sigma, cat: SML1229).

STING (IFN-β in hPBMC) = experiment: hPBMC cytokine functional assay (IFN-β decrease after Baculovirus stimulation); format: cell-based, human; conditions: read-out: hPBMC_IC50, Baculovirus MOI 40, 24 hours
Description: The inhibition of STING by compounds could be measured by the decrease of IFN-β in hPBMC, which is stimulated by a double stranded DNA virus Baculoviurs (Purchased from Genescript, pCMV-Dest Vector virus generation P2 BV stock virus, Sf-900 II medium with 5% FBS, Lot C9835DK230-2/P4DL001). Frozen hPBMC cells (purchased from Stemcell Technologies, cat number is 70025, Lot 191070803C) were thawed at 37° C. water bath, then cells were re-suspended in 50 ml tube using 20 ml Cell culture medium, and then centrifuged for 5 min at 2000 rpm before the supernatant was removed carefully. The cells were re-suspended in culture medium (RPMI-1640 with 1.5 g/L NaHCO3, 4.5 g/L glucose, 10 mM HEPES and 1 mM Na-pyruvate, 10% HI-FBS); 65 μL of the cell suspension was dispensed into 384 well plate (70K cells/well) by Multidrop Combi with at least 3 hours incubation at 37° C., 5% CO2 cell incubator.
Then 4 μL of compound solution per well (final 0.5% DMSO) was transferred by Agilent Bravo followed by infection with 11 μL of Baculovirus at a final MOI of 40. The level of IFN-β secreted in the supernatant of hPBMC was determined after 24 hours of incubation at 37° C. cell incubator by human IFN-β HTRF assay (Cisbio, cat: 62HIFNBPEH) following the manufacture's instruction. CellTiter-Glo kit (Promega, cat: G7573) was applied for the cell viability evaluation using Envision.

CN1CCCc2c3c(cccc3nn2C)-c2nccc(n2)N[C@H]2C[C@@H](C1=O)N(c1ncnc3c1cnn3-c1ccc(F)cc1F)C2
IC50 [1]: 0.2 nM | IC50 (STING (IFN-β in hPBMC)): 397 nM
